The text below walks through data of article PMC5019189 (European journal of pharmacology, 2015).

For this data set, the system named is HUVEC. Kind of data set: Cell viability. The data set is classed as cell-based, human.

In the case of `Cn1cc[nH]c1=S` [MMI, 3-methyl-1, 3 imidazole-2 thione], the “TC50 of MMI relative to the phenyl appended compounds” value (MTS, HUVEC) is recorded as “two to five times higher”. Further, for the setting “TC50 (MTS, HUVEC) / IC50 (VCAM-1 ELISA, HUVEC)”, the “toxic to inhibitory index (TII), ratio of TC50 to IC50” value is listed as 2.
